Measurements reported in patent publication US11299641B2, “Curable liquid composition, composition-accommodating container, liquid composition discharging device, cured material, and method of manufacturing cured material” (RICOH COMPANY, LTD., priority 2018, dated 2022).

Test system: female mice
Assay: skin sensitization test in accordance with the Local Lymph Node Assay (LLNA) method, SI value
Format: in vivo
Details: test substance 50.0 w/v percent in acetone/olive oil 4 to 1, 25 μL per ear once a day for three days, BrdU intake
Protocol: The SI value was measured in the manner described below according to the skin sensitization test in accordance with the Local Lymph Node Assay (LLNA) method.
α-hexylcinnamaldehyde (HCA; product of FUJIFILM Wako Pure Chemical Corporation) was used as positive control material.
A liquid mixture containing acetone (product of FUJIFILM Wako Pure Chemical Corporation) and olive oil (product of Fudimi Pharmaceutical Co., Ltd.) in a volume ratio of 4 to 1 was used as medium.
For each of the test substances, the positive control, or the medium control, female mice were acclimated for 8 days including 6-day quarantine. No abnormalities were found in all the mice during the quarantine/acclimation period.
Based on the body weights measured two days before the initiation of sensitization, the mice were categorized into 2 groups (4 mice/group) by the body weight stratified random sampling method so that the body weight of each individual was within −20 to +20 percent of the average body weight of all the individuals. […]
All the animals used for the test were observed once or more times a day from the day of the initiation of sensitization to the day of the removal of the auricular lymph node (i.e., the day when the animals were transferred from the animal room). […] Also, the weight average and the standard error for each group were calculated. […]

Question: With “Ethylene oxide-modified bisphenol A diacrylate [Example A3]” as the substance, how does the “SI value in the LLNA test” value read?
Answer: The value was 1.2.
